{"source": "patent US11384150B2", "about": "“Antibody-drug conjugates and uses thereof” (Development Center for Biotechnology, priority 2016, dated 2022)", "tested_on": "SW48 colon cancer cells (wild-type BRAF and KRAS)", "test": "Efficacy (viability) on SW48 colon cancer cells", "assay_type": "cell-based", "conditions": "cetuximab 1 ug/ml (FIG. 3)", "data": [{"substance": "cetuximab", "values": [{"measurement": "sensitivity of cells to treatment", "result": "sensitive"}]}]}
